Chains of the proteins cited; added tags and fusions are not shown. Residues count along the entry.
UniProt Q9PJC7, 1-159: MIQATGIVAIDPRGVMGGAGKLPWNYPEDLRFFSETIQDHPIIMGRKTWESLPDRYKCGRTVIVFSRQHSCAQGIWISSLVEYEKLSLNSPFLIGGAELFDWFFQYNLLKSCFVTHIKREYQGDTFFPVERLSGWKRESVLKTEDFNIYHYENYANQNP
UniProt D7UY41, 1-163: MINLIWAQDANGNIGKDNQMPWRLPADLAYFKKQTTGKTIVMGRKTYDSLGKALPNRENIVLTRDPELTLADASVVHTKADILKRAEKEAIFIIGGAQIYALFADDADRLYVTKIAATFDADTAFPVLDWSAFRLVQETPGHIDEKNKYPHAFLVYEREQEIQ

In article PMC8331180, “Development of antibacterial compounds that constrain evolutionary pathways to resistance” (eLife, 2021):

How the values were obtained:
C. muridarum WT DHFR = C. muridarum WT DHFR (Chlamydia muridarum, UniProt Q9PJC7); assay: biochemical
L. grayi WT DHFR = L. grayi WT DHFR (Listeria grayi, UniProt D7UY41); assay: biochemical

SMILES	Ki (C. muridarum WT DHFR)	Ki (L. grayi WT DHFR)
CCOc1cc(C=C2C(=O)NC(=O)NC2=O)ccc1OCC(=O)O [CD17]	32.4 µM	16.2 µM
COc1ccc([C@@H]2CC(c3c(O)[nH]c(=O)n(C)c3=O)=NN2)cc1OC [CD15]	14.6 µM	5.01 µM
